Results from patent US9638690B2, “Compounds and compositions for use as alkylating agent sensors and methods of use thereof” (dated 2017).

Assay: Assay of cyclophosphamide with NBP and its derivatives (colorimetric, UV/Vis)
Details: dye formed with cyclophosphamide; for ε, molar absorptivity of the dye resulting from reaction with CP: NaOAc buffer pH 4.5, 100° C. twenty minutes, then 1:1 triethylamine:acetone, blank subtracted; for λanal, analytical wavelength: wavelength of highest intensity in the 400-700 nm range after background corrections

## O=[N+]([O-])c1ccc(Cc2ccncc2)cc1
  ε, molar absorptivity of the dye resulting from reaction with CP: 0.55E6 L M^−1cm^−1
  λanal, analytical wavelength: 575 nm

## O=Cc1cc([N+](=O)[O-])ccc1Cc1ccncc1
  ε, molar absorptivity of the dye resulting from reaction with CP: 0.89E6 L M^−1cm^−1
  λanal, analytical wavelength: 587 nm

## O=[N+]([O-])c1ccc(Cc2ccncc2)c(/C=N/Cc2ccccc2)c1
  ε, molar absorptivity of the dye resulting from reaction with CP: 0.77E6 L M^−1cm^−1
  λanal, analytical wavelength: 581 nm

## O=[N+]([O-])c1ccc(Cc2ccncc2)c(CO)c1
  ε, molar absorptivity of the dye resulting from reaction with CP: 0.46E6 L M^−1cm^−1
  λanal, analytical wavelength: 570 nm

## O=C([O-])c1cc([N+](=O)[O-])ccc1Cc1ccncc1.[K+]
  ε, molar absorptivity of the dye resulting from reaction with CP: 2E6 L M^−1cm^−1
  λanal, analytical wavelength: 603 nm
